Assay results taken from US11718635B2, “Iron bis(imino) aryl catalysts and methods thereof” (ExxonMobil Chemical Patents Inc., priority 2019, dated 2023).

Assay: Solubility tests in anhydrous hexane (stirred 30 minutes at room temperature, filtered, solvent removed)
Format: physicochemical
Details: result in words, relative to the Comparative Catalyst
Protocol: Into a vial was placed 0.097 g of 2,6-bis-[1-(2-chloro-4,6-dimethylphenylimino)ethyl]pyridine iron-silylneopentyl with 2.007 g of anhydrous hexane. This solution was stirred for 30 minutes at room temperature. The contents were then filtered through a buchner filter funnel with a frit having a 4-5.5 micron size. The solvent was then removed en vacuo.
Comparitive: Into a vial was placed 0.077 g 2,6-bis-[1-(2-chloro-4,6-dimethylphenylimino)ethyl]pyridine iron dichloride with 2.008 g of anhydrous hexane (Sigma Aldrich). This solution was stirred for 30 minutes at room temperature. The contents were then filtered through a buchner filter funnel with a frit having a 4-5.5 micron size. The solvent was then removed en vacuo.

2,6-bis-[1-(2-chloro-4,6-dimethylphenylimino)ethyl]pyridine iron-silylneopentyl [Catalyst 2]
solubility in hydrophobic (nonpolar) solvents compared to the Comparative Catalyst: significantly improved solubility
